Key:
[1] = test system: human gastric cancer cell NCI-N87 model; experiment: In vivo tumor inhibition, subcutaneous xenograft in nude mice; set-up: species or system Mus Musculus; conditions: single tail vein dose, Herceptin 10 mg/kg, Tr-1b 1, 2, 4 mg/kg, FIG. 11
Protocol: Mice: female nude mice of 6-8 weeks old (species: Mus Musculus, BALB/c nude; SpePharm (Beijing) Biotechnology Co., Ltd.) for experiments.
(§1) Measurement and calculation of tumor volume:
(§2) The tumor volume (mm^3) was calculated by measuring the long diameter and short diameter of the tumor twice a week with calipers.

SK-BR-3 = experiment: Cell proliferation inhibition test (CTG, 6 days); assay type: cell-based, human; conditions: 6 days after dosing
Protocol: (§3) Test samples: Ab1: DS-8201 (Enhertu, fam-trastuzumab deruxtecan-nxki); Ab2: antibody-drug conjugate Tr-1b.
(§4) Viability assay: The resuscitated cells were cultured for 6 days after dosing, cell proliferation results were detected, and IC50 values were calculated. […]
(§5) The data were analyzed using software GraphPad Prism 7.0, and fitted by the nonlinear S-curve regression to obtain a dose-effect curve, based on which the IC50 value was calculated.

NCI-N87 = experiment: Cell proliferation inhibition test (CTG, 6 days); assay type: cell-based, human; conditions: 6 days after dosing
Protocol: as §3, §4, §5

[2] = test system: human breast cancer BT474 model; experiment: In vivo tumor inhibition, subcutaneous xenograft in mice; set-up: species or system Mus Musculus; conditions: single tail vein dose, Herceptin 10 mg/kg, Tr-1b 5, 10, 15 mg/kg, FIG. 12
Protocol: Mice: female nude mice of 6-9 weeks old (species: Mus Musculus, CB-17 SCID; SpePharm (Beijing) Biotechnology Co., Ltd.) for experiments.
as §1, §2
Calculation formula: tumor volume (mm^3)=0.52×length diameter (mm)×[short diameter (mm)]^2

NCI-N87 cells = experiment: Endocytosis test (fluorescence density, endocytosis rate); assay type: cell-based, human
SK-BR-3 cells = experiment: as above; assay type: cell-based, human

trastuzumab [Herceptin] was tested, and the “tumor inhibition effect (tumor volume, in words)” value [1] was “inhibitory effect against tumor proliferation”, the “IC50 (ng/ml) SK-BR-3” value (SK-BR-3) was 30.51 ng/mL and the “IC50 (ng/ml) NCI-N87” value (NCI-N87) was 30.96 ng/mL. For the same substance, the “tumor inhibition effect (tumor volume, in words)” value [2] was “inhibitory effect against tumor proliferation”, the “fluorescence density for endocytosis, 37° C. 0 h” value (NCI-N87 cells; 37° C. 0 h) was 23.7 and the “Endocytosis rate (%) 37° C. 0.5 h” value (NCI-N87 cells; 37° C. 0.5 h) was 2.34%. The “fluorescence density for endocytosis, 37° C. 0.5 h” value (NCI-N87 cells; 37° C. 0.5 h) was 41.3, the “Endocytosis rate (%) 37° C. 1 h” value (NCI-N87 cells; 37° C. 1 h) was 8.39% and the “fluorescence density for endocytosis, 37° C. 1 h” value (NCI-N87 cells; 37° C. 1 h) was 86.8. For the same substance, the “Endocytosis rate (%) 37° C. 2 h” value (NCI-N87 cells; 37° C. 2 h) was 9.34%, the “fluorescence density for endocytosis, Binding Control Group” value (NCI-N87 cells; binding control group) was 763 and the “fluorescence density for endocytosis, 37° C. 0 h” value (SK-BR-3 cells; 37° C. 0 h) was 12.7. The “Endocytosis rate (%) 37° C. 0.5 h” value (SK-BR-3 cells; 37° C. 0.5 h) was 3.74%, the “fluorescence density for endocytosis, 37° C. 0.5 h” value (SK-BR-3 cells; 37° C. 0.5 h) was 26.3 and the “Endocytosis rate (%) 37° C. 1 h” value (SK-BR-3 cells; 37° C. 1 h) was 6.37%. For the same substance, the “fluorescence density for endocytosis, 37° C. 1 h” value (SK-BR-3 cells; 37° C. 1 h) was 35.9, the “Endocytosis rate (%) 37° C. 2 h” value (SK-BR-3 cells; 37° C. 2 h) was 23.71% and the “fluorescence density for endocytosis, Binding Control Group” value (SK-BR-3 cells; binding control group) was 384.

From patent US20240350650A1, “LINKER AND CONJUGATE THEREFOR” (BEIJING HOPE PHARMACEUTICAL CO.LTD., priority 2021, published 2024)
